Results from patent EP4834339A1, “COMPOUND COMPOSITION OF ADAPALENE AND DAPSONE, PREPARATION METHOD THEREFOR, AND USE THEREOF” (dated 2026).
In brackets after ≈: the same amount, converted by molar mass.

Experiment: Solubility of adapalene in various media
Details: adapalene in purified water, room temperature, 24 hours

Solubility: 0.07 µg/mL (≈ 0.17 µM)
Compound: COc1ccc(-c2ccc3cc(C(=O)O)ccc3c2)cc1C12CC3CC(CC(C3)C1)C2
